Measurements from paper PMC11367644, “Structural basis for TNIP1 binding to FIP200 during mitophagy” (The Journal of Biological Chemistry, 2024).
Blank lines part the entries; values can stand above or below the substance they belong to.

Assays:
[1] = molecular target: FIP200 claw domain, 1490-1594 (UniProt Q8TDY2); assay: ITC; conditions: reference: unmodified TNIP1 FIR peptide
[2] = molecular target: FIP200 claw domain, 1490-1594 (UniProt Q8TDY2); assay: displacement of p-CCPG1 FIR2 peptide from claw; conditions: reference: unmodified TNIP1 peptide as competitor; sites S123

binding against the reference ([1]; sites S122): gained
Substance: TNIP1 FIR motif (from UniProt Q15025) pS122 peptide

binding against the reference ([1]; sites S123): gained
Substance: TNIP1 FIR motif (from UniProt Q15025) pS123 peptide

binding against the reference [2]: stronger
Substance: TNIP1 FIR motif (from UniProt Q15025) TNIP1_pS123 peptide as competitor
